Values of other authors, collected in patent US20230349886A1, “SYSTEMS AND METHODS FOR PREDICTING CARDIOTOXICITY OF MOLECULAR PARAMETERS OF A COMPOUND BASED ON MACHINE LEARNING ALGORITHMS” (UTI Limited Partnership, priority 2015, published 2023).
Like-named read-outs stand apart in the source and are kept apart here.

Sequences of proteins named here, by UniProt entry; tags and fusion partners are left off. A change or cut given only in a name is not applied to a line headed by its entry.
UniProt Q12809: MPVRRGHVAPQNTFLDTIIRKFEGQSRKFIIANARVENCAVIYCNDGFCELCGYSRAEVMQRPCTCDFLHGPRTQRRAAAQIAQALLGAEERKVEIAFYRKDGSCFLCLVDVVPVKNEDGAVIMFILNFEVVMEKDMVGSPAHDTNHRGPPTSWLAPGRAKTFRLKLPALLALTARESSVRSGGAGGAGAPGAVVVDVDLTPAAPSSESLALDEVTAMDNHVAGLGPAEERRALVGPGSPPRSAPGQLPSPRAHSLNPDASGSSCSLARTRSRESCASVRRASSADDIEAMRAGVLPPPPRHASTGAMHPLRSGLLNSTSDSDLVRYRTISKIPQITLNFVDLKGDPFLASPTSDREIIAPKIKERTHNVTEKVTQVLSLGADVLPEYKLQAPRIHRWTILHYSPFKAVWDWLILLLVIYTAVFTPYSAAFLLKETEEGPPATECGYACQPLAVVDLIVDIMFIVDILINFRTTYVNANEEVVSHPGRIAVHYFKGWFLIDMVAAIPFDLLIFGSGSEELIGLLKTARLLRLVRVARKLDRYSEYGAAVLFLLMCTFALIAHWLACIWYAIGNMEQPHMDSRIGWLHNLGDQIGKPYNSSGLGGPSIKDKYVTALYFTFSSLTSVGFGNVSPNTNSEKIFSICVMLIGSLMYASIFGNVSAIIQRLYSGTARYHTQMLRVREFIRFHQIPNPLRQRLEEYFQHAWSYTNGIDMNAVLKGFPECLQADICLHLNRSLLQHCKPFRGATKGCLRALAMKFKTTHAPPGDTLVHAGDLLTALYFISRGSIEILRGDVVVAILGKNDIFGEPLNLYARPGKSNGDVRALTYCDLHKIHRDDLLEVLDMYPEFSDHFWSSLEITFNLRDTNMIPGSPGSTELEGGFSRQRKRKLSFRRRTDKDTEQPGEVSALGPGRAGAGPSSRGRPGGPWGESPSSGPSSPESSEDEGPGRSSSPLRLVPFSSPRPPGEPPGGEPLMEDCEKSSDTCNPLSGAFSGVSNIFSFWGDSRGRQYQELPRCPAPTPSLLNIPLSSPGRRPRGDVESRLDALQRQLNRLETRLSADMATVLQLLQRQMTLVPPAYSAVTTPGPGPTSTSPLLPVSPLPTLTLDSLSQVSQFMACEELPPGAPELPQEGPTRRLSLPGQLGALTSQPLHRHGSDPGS

Target: hERG (Homo sapiens, UniProt Q12809)
Throughout, for HERG maxInhib: test concentration or dose not given here.

SMILES	HERG maxInhib	HERG maxInhib (Brown dataset)	HERG pIC50 (Brown dataset)	pIC50 (Table 11, calculated from HERG-IC50 of the Kramer et al. 2013 data)	IC50 (read-out: HERG IC50, Brown dataset)
COc1cc(N)c(Cl)cc1C(=O)NC1CCN(CCCOc2ccc(F)cc2)CC1OC (centres unmarked) [cisapride]	82.1				
Cc1cn(-c2cc(NC(=O)c3ccc(C)c(Nc4nccc(-c5cccnc5)n4)c3)cc(C(F)(F)F)c2)cn1 [nilotinib]		68.2	6	6	1000 nM
